Assay results as given in patent US10059668B2 (Mirati Therapeutics, Inc., priority 2015, dated 2018).
Read-outs that look alike come from different tables or passages of the source.

Key:
[1] = biological target: purified N-terminal truncated human LSD1 enzyme (aa 151-852) (Homo sapiens (Human), UniProt O60341); experiment: LSD1 fluorescence coupling enzymatic assay (horseradish peroxidase/Amplex Red); type: biochemical; details: 50 nM LSD1, 30 min pre-incubation, 10 μM histone 3.3 peptide (aa 1-21), 10-point dose-response; read-out: IC50 (nM), Inhibition of LSD1 Activity
MV4-11 cells = experiment: Inhibition of LSD1-mediated cellular proliferation, CellTiter Glo luminescence assay; type: cell-based; details: Homo sapiens, read-out: EC50 (nM), Inhibition of LSD1-mediated Cell Proliferation

Row | SMILES | IC50 [1] [nM] | EC50 (MV4-11 cells; MV4-11, 168 h) [nM] | EC50 (MV4-11 cells; 168 h, MV4-11 cells, Day 7, cell viability by CellTiter Glo) [nM]
1 | CONC(=O)/C=C/c1cccc(CN2CCC(N[C@@H]3C[C@H]3c3ccccc3)CC2)c1 (relative stereo) [Example 3, (E)-N-Methoxy-3-(3-((4-(((trans)-2-phenylcyclopropyl)amino)piperidin-1-yl)methyl)phenyl)acrylamide] | 25 | 3 | 
2 | CS(=O)(=O)NC(=O)/C=C/c1ccc(CN2CCC(N[C@@H]3C[C@H]3c3ccccc3)CC2)cc1 [Example 15, (E)-N-(Methylsulfonyl)-3-(4-((4-(((1R,2S)-2-phenylcyclopropyl)amino)piperidin-1-yl)methyl)phenyl)acrylamide] |  | < 1 | 
3 | O=C(Cc1ccc(CN2CCC(N[C@@H]3C[C@H]3c3ccccc3)CC2)cc1)NS(=O)(=O)C1CC1 [Example 45, N-(cyclopropylsulfonyl)-2-(4-((4-(((1R,2S)-2-phenylcyclopropyl)amino)piperidin-1-yl)methyl)phenyl)acetamide] |  | 43 | 
4 | CS(=O)(=O)NC(=O)/C=C/c1ccc(CN2CCC(N[C@@H]3C[C@H]3c3ccccc3)CC2)cc1 (relative stereo) [Example 2, (E)-N-(Methylsulfonyl)-3-(4-((4-(((trans)-2-phenylcyclopropyl)amino)piperidin-1-yl)methyl)phenyl)acrylamide] |  | 14 | 
5 | CONC(=O)/C=C/c1ccc(CN2CCC(N[C@@H]3C[C@H]3c3ccccc3)CC2)cc1 (relative stereo) [Example 1, (E)-N-Methoxy-3-(4-((4-(((trans)-2-phenylcyclopropyl)amino)piperidin-1-yl)methyl)phenyl)acrylamide] |  | 1 | 
6 | CS(=O)(=O)NC(=O)/C=C/c1cccc(CN2CCC(N[C@@H]3C[C@H]3c3ccccc3)CC2)c1 (relative stereo) [Example 4, (E)-N-(Methylsulfonyl)-3-(3-((4-(((trans)-2-phenylcyclopropyl)amino)piperidin-1-yl)methyl)phenyl)acrylamide] |  |  | 55
